Among the data in ChEMBL document CHEMBL1132657, “CoMFA study of novel phenyl ring-substituted 3alpha-(diphenylmethoxy)tropane analogues at the dopamine transporter” (J Med Chem, 1999) are Ki values, retold here.

Sequences of proteins named here, by UniProt entry; tags and fusion partners are left off.
UniProt P23977, whole entry: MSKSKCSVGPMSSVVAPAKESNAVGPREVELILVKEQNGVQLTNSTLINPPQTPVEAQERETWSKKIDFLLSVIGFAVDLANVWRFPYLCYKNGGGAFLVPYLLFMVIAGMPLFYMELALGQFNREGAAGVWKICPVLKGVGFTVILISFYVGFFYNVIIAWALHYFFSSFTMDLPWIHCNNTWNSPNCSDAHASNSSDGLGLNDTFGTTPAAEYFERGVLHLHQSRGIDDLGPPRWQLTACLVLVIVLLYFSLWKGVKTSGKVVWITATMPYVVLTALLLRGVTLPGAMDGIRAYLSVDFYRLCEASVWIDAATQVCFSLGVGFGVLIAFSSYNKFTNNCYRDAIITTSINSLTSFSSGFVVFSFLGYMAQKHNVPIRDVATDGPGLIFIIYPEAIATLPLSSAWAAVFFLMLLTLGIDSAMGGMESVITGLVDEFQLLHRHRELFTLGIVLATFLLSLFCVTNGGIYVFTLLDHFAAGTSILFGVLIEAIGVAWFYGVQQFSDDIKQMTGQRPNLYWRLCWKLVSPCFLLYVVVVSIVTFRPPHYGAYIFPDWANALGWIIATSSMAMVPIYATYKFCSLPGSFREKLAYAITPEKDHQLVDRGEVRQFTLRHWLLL

This experiment deals with Sodium-dependent dopamine transporter (Rattus norvegicus, UniProt P23977). Put plainly: Displacement of [3H]WIN-35428 binding to the dopamine transporter in rat caudate putamen tissue. It is filed as tissue-based. In general terms: Loss of bound radioactivity is the signal in a displacement assay; it reports binding, not function.

pKi: −log10 of the molar value.

Broadly, the pKi is −log10 of the Ki, conventionally taken in molar units. A higher pKi goes with a small Ki. Take `CN1[C@@H]2CC[C@H]1C[C@@H](OC(c1ccc(F)cc1)c1cccc(F)c1)C2` (stereo partly specified): the pKi was 7.63.
